Reference: patent US6623933B1 (priority 1999, dated 2003)
Where two headings read alike, the source gives them in different places.

Chains of the proteins cited; added tags and fusions are not shown. Residues count along the entry.
UniProt Q00961, 20-1237: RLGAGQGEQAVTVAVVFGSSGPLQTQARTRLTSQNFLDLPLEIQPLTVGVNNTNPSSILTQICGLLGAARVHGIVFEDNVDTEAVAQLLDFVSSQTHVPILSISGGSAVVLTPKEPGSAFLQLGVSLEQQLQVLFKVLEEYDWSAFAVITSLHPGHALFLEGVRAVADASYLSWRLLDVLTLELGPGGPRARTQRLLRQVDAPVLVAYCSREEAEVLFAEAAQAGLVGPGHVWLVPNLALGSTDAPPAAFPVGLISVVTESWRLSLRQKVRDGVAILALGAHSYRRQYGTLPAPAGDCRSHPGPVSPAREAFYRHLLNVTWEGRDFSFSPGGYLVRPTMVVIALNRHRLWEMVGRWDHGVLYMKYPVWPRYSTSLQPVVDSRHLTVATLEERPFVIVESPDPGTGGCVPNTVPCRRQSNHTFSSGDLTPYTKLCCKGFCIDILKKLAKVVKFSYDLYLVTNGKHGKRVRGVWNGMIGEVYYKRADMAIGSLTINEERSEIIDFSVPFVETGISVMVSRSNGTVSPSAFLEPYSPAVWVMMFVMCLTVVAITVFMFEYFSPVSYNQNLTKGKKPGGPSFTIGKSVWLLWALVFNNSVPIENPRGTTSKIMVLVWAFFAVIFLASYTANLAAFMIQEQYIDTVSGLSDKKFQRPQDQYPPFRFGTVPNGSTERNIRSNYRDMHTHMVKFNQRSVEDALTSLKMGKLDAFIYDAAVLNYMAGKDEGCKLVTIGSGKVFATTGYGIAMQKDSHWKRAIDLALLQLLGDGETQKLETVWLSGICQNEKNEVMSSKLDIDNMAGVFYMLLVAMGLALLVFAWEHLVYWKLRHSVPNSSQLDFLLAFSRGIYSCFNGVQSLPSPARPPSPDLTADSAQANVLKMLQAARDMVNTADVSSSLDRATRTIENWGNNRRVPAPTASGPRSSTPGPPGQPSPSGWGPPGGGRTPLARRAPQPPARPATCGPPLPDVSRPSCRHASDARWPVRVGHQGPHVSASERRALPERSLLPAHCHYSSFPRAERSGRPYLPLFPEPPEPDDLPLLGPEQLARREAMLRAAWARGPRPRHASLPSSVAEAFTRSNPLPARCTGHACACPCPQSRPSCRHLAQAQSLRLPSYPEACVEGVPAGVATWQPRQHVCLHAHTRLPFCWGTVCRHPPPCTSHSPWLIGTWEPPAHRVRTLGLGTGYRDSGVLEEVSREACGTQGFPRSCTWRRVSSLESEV
UniProt Q00959, 23-1464: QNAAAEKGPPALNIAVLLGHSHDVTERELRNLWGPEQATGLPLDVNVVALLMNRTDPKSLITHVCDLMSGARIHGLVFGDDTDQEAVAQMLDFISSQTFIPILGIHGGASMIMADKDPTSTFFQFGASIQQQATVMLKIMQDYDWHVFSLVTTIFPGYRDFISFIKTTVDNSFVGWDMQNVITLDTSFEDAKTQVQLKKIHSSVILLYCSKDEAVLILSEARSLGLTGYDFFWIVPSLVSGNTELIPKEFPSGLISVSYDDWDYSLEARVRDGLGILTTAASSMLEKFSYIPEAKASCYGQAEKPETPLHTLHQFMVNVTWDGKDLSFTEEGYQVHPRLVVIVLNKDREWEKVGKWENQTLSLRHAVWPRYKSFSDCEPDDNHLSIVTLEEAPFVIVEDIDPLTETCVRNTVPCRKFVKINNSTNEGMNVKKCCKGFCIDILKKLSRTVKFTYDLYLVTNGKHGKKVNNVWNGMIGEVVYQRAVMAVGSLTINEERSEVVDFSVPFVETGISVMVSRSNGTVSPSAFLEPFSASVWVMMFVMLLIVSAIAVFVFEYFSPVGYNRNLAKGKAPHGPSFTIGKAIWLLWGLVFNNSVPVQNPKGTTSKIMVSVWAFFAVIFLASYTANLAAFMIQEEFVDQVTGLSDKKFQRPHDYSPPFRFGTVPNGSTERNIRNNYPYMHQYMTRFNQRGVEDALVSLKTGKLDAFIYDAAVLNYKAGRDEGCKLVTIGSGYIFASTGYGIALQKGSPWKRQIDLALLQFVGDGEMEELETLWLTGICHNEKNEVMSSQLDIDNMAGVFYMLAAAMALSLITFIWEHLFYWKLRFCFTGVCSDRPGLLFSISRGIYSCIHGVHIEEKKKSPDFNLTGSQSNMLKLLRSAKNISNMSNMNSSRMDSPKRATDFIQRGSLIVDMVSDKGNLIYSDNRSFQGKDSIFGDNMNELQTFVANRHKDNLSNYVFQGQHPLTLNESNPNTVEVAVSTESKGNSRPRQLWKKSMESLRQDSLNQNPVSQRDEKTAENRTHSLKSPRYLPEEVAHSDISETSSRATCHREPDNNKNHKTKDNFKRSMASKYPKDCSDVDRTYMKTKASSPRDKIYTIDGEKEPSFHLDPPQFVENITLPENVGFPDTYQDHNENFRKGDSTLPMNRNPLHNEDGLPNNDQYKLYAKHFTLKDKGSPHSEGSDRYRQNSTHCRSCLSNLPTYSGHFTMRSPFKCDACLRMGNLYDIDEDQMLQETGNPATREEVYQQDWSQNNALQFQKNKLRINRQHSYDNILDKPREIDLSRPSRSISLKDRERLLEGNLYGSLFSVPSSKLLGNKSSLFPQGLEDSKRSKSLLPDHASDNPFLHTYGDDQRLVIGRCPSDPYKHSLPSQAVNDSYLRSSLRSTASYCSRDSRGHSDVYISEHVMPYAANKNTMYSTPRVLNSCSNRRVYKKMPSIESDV
UniProt Q62645, 28-1323: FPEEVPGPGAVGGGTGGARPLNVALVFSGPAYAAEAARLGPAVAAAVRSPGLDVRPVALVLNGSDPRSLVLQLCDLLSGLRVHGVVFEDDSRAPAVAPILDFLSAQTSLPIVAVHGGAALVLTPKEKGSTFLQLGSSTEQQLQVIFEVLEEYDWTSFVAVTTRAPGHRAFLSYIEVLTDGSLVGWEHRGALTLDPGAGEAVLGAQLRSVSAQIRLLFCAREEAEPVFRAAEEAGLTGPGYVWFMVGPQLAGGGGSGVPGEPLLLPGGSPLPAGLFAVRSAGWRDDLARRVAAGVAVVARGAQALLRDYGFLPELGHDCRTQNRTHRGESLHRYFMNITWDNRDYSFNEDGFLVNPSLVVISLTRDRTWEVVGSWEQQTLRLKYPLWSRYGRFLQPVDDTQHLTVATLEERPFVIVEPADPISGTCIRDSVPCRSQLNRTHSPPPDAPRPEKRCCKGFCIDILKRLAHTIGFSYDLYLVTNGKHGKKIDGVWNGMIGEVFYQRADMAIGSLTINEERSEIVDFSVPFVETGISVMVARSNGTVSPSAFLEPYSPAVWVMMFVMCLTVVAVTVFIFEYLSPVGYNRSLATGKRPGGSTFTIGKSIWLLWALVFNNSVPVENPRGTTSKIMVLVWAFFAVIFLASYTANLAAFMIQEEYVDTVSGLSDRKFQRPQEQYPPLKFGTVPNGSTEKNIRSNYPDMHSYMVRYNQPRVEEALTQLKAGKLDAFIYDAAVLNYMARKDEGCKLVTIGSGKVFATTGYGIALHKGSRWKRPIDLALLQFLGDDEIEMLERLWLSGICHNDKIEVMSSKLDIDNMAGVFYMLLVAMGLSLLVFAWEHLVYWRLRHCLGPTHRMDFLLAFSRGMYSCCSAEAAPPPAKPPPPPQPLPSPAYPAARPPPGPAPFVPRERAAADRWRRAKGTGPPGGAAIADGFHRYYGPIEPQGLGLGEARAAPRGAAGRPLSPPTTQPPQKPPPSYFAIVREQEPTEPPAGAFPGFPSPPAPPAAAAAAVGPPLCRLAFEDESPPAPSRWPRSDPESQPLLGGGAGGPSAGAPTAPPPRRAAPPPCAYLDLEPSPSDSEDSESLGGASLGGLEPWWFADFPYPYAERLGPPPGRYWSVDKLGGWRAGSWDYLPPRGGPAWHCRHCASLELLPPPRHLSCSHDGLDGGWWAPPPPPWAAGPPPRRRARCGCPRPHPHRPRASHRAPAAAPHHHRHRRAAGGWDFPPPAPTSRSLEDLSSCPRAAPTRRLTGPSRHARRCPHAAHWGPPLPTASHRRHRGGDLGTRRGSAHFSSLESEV
UniProt P42260, 32-908: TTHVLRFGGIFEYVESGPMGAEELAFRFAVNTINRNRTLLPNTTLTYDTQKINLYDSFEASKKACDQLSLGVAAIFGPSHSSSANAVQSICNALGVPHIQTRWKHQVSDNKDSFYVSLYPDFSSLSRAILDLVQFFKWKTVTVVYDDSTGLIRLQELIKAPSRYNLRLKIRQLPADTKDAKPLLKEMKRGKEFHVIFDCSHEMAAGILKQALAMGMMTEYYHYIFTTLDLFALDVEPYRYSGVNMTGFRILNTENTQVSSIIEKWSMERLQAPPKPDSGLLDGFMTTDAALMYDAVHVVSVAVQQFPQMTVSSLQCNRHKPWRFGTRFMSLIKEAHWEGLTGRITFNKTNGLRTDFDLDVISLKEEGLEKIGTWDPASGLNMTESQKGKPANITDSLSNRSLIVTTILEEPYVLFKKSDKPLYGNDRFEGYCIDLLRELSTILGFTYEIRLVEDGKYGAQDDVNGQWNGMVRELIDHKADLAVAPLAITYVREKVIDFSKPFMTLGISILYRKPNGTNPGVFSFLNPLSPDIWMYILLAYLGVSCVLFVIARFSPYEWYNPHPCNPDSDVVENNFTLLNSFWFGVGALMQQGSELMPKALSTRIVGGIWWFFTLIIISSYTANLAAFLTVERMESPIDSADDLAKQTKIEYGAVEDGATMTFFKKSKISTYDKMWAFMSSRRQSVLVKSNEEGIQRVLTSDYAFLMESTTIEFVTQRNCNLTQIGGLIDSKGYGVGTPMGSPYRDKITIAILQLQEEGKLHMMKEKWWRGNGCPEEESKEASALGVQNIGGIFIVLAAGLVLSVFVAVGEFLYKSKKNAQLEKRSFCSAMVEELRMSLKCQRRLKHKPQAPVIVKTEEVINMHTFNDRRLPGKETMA
UniProt P19490, 19-907: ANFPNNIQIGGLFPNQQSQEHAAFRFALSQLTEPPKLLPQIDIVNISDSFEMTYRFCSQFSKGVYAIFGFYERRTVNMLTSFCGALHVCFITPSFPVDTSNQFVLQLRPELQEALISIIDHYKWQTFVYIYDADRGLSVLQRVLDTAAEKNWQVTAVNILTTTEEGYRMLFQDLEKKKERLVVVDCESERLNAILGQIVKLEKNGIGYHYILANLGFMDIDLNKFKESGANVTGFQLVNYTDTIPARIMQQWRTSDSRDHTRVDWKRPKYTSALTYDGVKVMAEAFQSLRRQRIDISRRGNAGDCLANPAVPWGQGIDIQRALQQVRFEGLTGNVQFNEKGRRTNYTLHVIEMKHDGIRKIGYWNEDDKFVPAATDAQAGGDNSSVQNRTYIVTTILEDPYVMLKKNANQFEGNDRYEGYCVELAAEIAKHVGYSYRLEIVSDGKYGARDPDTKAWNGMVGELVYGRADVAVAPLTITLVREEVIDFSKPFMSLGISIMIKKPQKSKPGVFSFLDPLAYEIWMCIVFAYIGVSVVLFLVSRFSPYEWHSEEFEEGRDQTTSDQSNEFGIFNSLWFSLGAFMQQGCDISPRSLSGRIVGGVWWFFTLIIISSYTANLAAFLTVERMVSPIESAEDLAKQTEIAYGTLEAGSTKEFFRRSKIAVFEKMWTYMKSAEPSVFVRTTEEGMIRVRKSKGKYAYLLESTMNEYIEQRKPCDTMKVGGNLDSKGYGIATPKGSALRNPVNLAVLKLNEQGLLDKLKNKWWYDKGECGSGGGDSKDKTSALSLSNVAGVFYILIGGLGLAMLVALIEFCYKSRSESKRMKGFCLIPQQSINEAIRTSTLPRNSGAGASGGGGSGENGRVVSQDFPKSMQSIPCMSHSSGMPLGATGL
UniProt P19492, 23-888: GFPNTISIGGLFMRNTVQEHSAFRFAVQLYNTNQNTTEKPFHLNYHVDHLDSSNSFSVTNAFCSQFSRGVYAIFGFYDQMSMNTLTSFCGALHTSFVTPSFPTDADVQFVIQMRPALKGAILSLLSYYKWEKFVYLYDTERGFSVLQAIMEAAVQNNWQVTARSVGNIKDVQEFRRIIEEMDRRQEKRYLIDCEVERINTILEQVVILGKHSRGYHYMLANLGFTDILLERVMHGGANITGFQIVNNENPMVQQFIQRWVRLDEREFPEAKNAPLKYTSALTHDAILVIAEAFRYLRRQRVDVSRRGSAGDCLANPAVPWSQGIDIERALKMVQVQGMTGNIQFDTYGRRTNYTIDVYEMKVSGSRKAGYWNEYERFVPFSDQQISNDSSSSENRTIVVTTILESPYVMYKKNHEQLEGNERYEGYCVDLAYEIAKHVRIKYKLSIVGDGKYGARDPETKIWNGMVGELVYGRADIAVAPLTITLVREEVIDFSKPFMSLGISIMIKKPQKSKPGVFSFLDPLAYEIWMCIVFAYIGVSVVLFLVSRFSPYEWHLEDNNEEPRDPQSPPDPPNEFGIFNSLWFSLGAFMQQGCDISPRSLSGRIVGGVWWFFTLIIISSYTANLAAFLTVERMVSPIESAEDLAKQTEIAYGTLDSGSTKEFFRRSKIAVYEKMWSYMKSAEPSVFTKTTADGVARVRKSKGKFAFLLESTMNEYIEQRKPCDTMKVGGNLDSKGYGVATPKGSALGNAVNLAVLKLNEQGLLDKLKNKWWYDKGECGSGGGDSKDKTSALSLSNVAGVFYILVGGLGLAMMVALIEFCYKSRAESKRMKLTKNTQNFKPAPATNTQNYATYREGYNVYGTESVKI

Experiments:
[1] = target: NR1/NR2C (NR1100) (Rattus norvegicus, UniProt P35439+Q00961)
[2] = system: primary cultures of rat hippocampal neurons; test: NMDA-induced neuronal death, trypan blue exclusion; format: cell-based; conditions: chronic 16 hour NMDA exposure; DMSO vehicle
Protocol: Principally neuronal cultures were prepared from hippocampal tissue of fetal Sprague-Dawley rats on day 18 of embryonic development, as previously described (Brewer et al., Brain Research 494: 65-74 (1989)). Briefly, hippocampal cells were dissociated by trituration in Ca^2+/Mg^2+-free Hank's basic salt solution (Gibco) supplemented with 4.2 mM bicarbonate, 1 mM sodium pyruvate, 20 mM HEPES, 3 mg/ml bovine serum albumin (BSA). Dissociated cells were then pelleted by centrifugation (500×g, 4 min). […] Cells were then plated onto poly-L-lysine-coated 24-well culture dishes (Nunclon) at a density of 15,000 cell/cm^2 and maintained in a humidified atmosphere containing 5% CO2/95% air at 37° C. After 48 h, nonneuronal cell division was inhibited by a 48 h exposure to 1 μM cytosine arabinoside. […]
The ability of neurons to exclude trypan blue was used to quantitate cell viability (Dawson et al., Proc Natl Acad Sci USA 88: 6368-6371 (1991)). […] The number of stained and unstained neurons were counted in 4 high-power fields per culture well, using an inverted phase contrast microscope under both bright field and phase contrast settings. […] Percent cell death is expressed as follows: (number of trypan blue stained neurons)/(total number of neurons)×100%.
All data are expressed as mean±standard error of the mean. Statistical significance was evaluated using 95% confidence limits unless otherwise noted.

[3] = target: T1, NR1100+NR2A NMDA receptor (Rattus norvegicus, UniProt P35439+Q00959); test: NMDA-induced currents, Xenopus oocytes, Example 1; format: cell-based
T1 construct: expressed in transfected cells; host or cells: Xenopus oocytes co-injected with NR1100 and NR2A cRNA
Source text: (§1) Plasmids were obtained from the following individuals: Dr. Suzanne Zukin (Albert Einstein College of Medicine, Bronx, N.Y.), NR1100; Dr. Shigetada Nakanishi (Kyoto University Faculty of Medicine, Kyoto, Japan), NR2A; Dr. Stephen Heinemann (Salk Institute, San Diego, Calif.), GluR1 (flop), GluR3 (flop), and GluR6. Plasmids were linearized with BamH1 (NR1100), XhoI (NR2A, GluR1, GluR3) or XbaI (GluR6) prior to in vitro transcription with T3 (GluR1, GluR3, GluR6) or T7 (NR1100, NR2A) RNA polymerase using the Message Machine kit (Ambion, Austin, Tex.). […] RNA solutions (50-70 nl) were injected into oocytes for delivery of NR1100 (5 ng), NR1100:NR2A (1:10 ng), GluR1 (5 ng). GluR3 (5 ng), or GluR6 (20 ng). Oocytes were incubated in ND96 at 18-20° C. for 3-7 days prior to electrophysiological recording.
(§2) Steroid solutions were prepared as 70-100 mM frozen stocks in dimethyl sulfoxide (DMSO). The final DMSO concentration of all recording solutions was between 0.1% to 0.5% and was constant within an experiment.
(§3) Perfusion control and data acquisition were carried out using an automated oocyte electrophysiology workstation that was developed for the rapid collection of concentration-response data and real-time waveform analysis (Yaghoubi et al., Soc. Neurosci. Abstr. 20: 1109 (1995)). […]
(§4) Results are expressed as mean±S.E.M. Statistical comparisons were made using Student's t-test.

[4] = target: NR1/NR2B (NR1100) (Rattus norvegicus, UniProt P35439+Q00960)
[5] = target: NR1/NR2D (NR1100) (Rattus norvegicus, UniProt P35439+Q62645); conditions: read-out: PS EC50, 10 μM NMDA, 10 μM glycine
[6] = target: NR1/NR2A (NR1100) (Rattus norvegicus, UniProt P35439+Q00959); conditions: read-out: PS EC50, 80 μM NMDA, 10 μM glycine
[7] = target: T2, NR1100 NMDA receptor (Rattus norvegicus, UniProt P35439); test: NMDA-induced currents, Xenopus oocytes injected with NR1100 cRNA only, Example 1; format: cell-based; conditions: 300 μM NMDA, read-out: steroid EC50, modulation of NMDA response
T2 construct: expressed in transfected cells; host or cells: Xenopus oocytes injected with NR1100 cRNA only
Source text: as §1, §2, §3, §4

[8] = target: T3, GluR6 kainate receptor (Rattus norvegicus, UniProt P42260); test: Kainate-induced currents, Xenopus oocytes injected with GluR6 cRNA; format: cell-based; conditions: 10 μM kainate, maximum inhibition constrained to 100%, read-out: PS EC50, inhibition of kainate-induced current
T3 construct: expressed in transfected cells; host or cells: Xenopus oocytes injected with GluR6 cRNA (concanavalin A treated)
Source text: as §1, §2, §3, §4

[9] = target: T4, GluR1 AMPA receptor (Rattus norvegicus, UniProt P19490); test: Kainate-induced currents, Xenopus oocytes injected with GluR1 cRNA; format: cell-based; conditions: 100 μM kainate, read-out: PS EC50, inhibition of kainate-induced current
T4 construct: expressed in transfected cells; host or cells: Xenopus oocytes injected with GluR1 cRNA
Source text: as §1, §2, §3, §4

[10] = target: T5, GluR3 AMPA receptor (Rattus norvegicus, UniProt P19492); test: Kainate-induced currents, Xenopus oocytes injected with GluR3 cRNA; format: cell-based; conditions: 100 μM kainate, read-out: PS EC50, inhibition of kainate-induced current
T5 construct: expressed in transfected cells; host or cells: Xenopus oocytes injected with GluR3 cRNA
Source text: as §1, §2, §3, §4

[11] = read-out: PS EC50, […] μM NMDA, 10 μM glycine

Row | Molecule | EC50 ([1]; read-out: agonist EC50, no PS) [µM] | EC50 [2] [µM] | EC50 ([3]; control, read-out: NMDA EC50) [µM] | EC50 ([4]; read-out: agonist EC50, no PS) [µM] | EC50 [5] [µM] | EC50 [1, 11] [µM] | EC50 [6] [µM] | EC50 [7] [µM] | EC50 [8] [µM] | EC50 [9] [µM] | EC50 ([3]; 100 μM NMDA, read-out: steroid EC50, modulation of NMDA response) [µM] | EC50 [10] [µM] | EC50 [4, 11] [µM]
1 | CN[C@H](CC(=O)O)C(=O)O [NMDA, N-methyl-D-aspartate] | 24 | 12 | 29 | 25 |  |  |  |  |  |  |  |  | 
2 | pregnenolone sulfate [PS] |  |  |  |  | 118 | 112 | 21 | 26 | 80 | 43 | 32 | 12 | 33
